Earlier results, collected in patent publication US8815261B2 (priority 2009, dated 2014).

O=C1CCc2ccc(OCCCCN3CCN(c4cccc(Cl)c4Cl)CC3)cc2N1 [aripiprazole (free form), 7-{4-[4-(2,3-dichlorophenyl)-1-piperazinyl]butoxy}-3,4-dihydrocarbostyryl, reference compound]
4.6: logP | logP calculated value of organic acid (PubChem value (revised on February, 2009)) | logP calculated value of organic acid (PubChem value, as in Example 2 (Table 4))

Read-outs that look alike come from different tables or passages of the source.
